Reference: patent US20230051872A1, “Multivalent D-Peptidic Compounds for Target Proteins” (Reflexion Pharmaceuticals, Inc., priority 2019, published 2023)

By UniProt entry, the sequences of proteins in these tests, tags left out. Residues count along the entry.
UniProt Q15116, 25-167 limits assumed: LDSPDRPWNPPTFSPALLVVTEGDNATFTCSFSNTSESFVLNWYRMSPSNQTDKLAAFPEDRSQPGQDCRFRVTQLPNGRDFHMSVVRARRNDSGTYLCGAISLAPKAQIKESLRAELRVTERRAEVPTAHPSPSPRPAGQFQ

What was measured:
PD-1 [1] = target: T1, PD-1 (Homo sapiens, UniProt Q15116); assay: PD-1 blocking ELISA (PD-1-Fc binding to PD-L1-Fc); parameters: purchased R&D Systems 1086-PD-050 (PD-1-Fc); 156-B7-100 (PD-L1-Fc); conditions: biotinylated PD-1-Fc, PD-L1-Fc coated plate
PD-1 [2] = target: T1, PD-1; assay: Surface plasmon resonance (SPR) binding affinity to PD-1; parameters: purchased R&D Systems 1086-PD-050; conditions: Table 2, variant D-peptidic domains, target protein PD-1

| SMILES | inhibition of PD-1 binding to PD-L1 (PD-1 [1]) | inhibition of PD-1 binding to PD-L1 (PD-1 [1]; listed as RFX-977296) | Binding Affinity KD (nM) (PD-1 [2]) |
| --- | --- | --- | --- |
| CC[C@@H](C)[C@@H](NC(=O)CNC(=O)[C@@H](C)NC(=O)[C@@H](CCCCN)NC(=O)[C@@H](CCCCN)NC(=O)[C@@H](CC(C)C)NC(=O)[C@@H](CCC(=O)O)NC(=O)[C@@H](C)NC(=O)[C@H](NC(=O)[C@@H](C)NC(=O)[C@@H](CC(=O)O)NC(=O)[C@@H](CCC(=O)O)NC(=O)[C@@H](CCCCN)NC(=O)[C@@H](C)NC(=O)[C@@H](CC(N)=O)NC(=O)[C@@H](CCCCN)NC(=O)[C@@H](CC(C)C)NC(=O)[C@@H](CC(C)C)NC(=O)[C@@H](Cc1c[nH]c2ccccc12)NC(=O)[C@@H](CCC(N)=O)NC(=O)[C@@H](CC(=O)O)NC(=O)[C@H](NC(=O)[C@H](N)[C@H](C)O)[C@H](C)CC)[C@H](C)CC)C(=O)N[C@@H](C(=O)N[C@H](CO)C(=O)N[C@H](CC(=O)O)C(=O)N[C@H](CC(C)C)C(=O)N[C@H](Cc1ccc(O)cc1)C(=O)N[C@H](Cc1ccccc1)C(=O)N[C@H](CC(N)=O)C(=O)N[C@H](Cc1c[nH]c2ccccc12)C(=O)N[C@@H](C(=O)N[C@H](CC(N)=O)C(=O)N[C@@H](C(=O)N[C@H](C)C(=O)NCC(=O)N[C@H](CO)C(=O)N[C@@H](C(=O)N[C@H](CO)C(=O)N[C@H](CO)C(=O)N[C@@H](C(=O)N[C@H](CC(N)=O)C(=O)N[C@H](Cc1ccccc1)C(=O)N[C@H](Cc1c[nH]cn1)C(=O)N[C@H](CCCCN)C(=O)N[C@H](CC(N)=O)C(=O)N[C@H](Cc1ccc(O)cc1)C(=O)N[C@@H](C(=O)N[C@H](CC(C)C)C(=O)N[C@H](CCCCN)C(=O)N[C@H](C)C(=O)N[C@H](Cc1c[nH]cn1)C(=O)N[C@H](C)C(N)=O)[C@H](C)CC)C(C)C)C(C)C)C(C)C)[C@H](C)CC)[C@H](C)O [Compound 977296, tidqwllknakedaiaelkkaGitsdlyfnwinvaGsvssvnfhknyilkaha] | no detectable inhibition | failed to block |  |
| CC[C@@H](C)[C@@H](NC(=O)CNC(=O)[C@@H](C)NC(=O)[C@@H](CCCCN)NC(=O)[C@@H](CCCCN)NC(=O)[C@@H](CC(C)C)NC(=O)[C@@H](CCC(=O)O)NC(=O)[C@@H](C)NC(=O)[C@H](NC(=O)[C@@H](C)NC(=O)[C@@H](CC(=O)O)NC(=O)[C@@H](CCC(=O)O)NC(=O)[C@@H](CCCCN)NC(=O)[C@@H](C)NC(=O)[C@@H](CC(N)=O)NC(=O)[C@@H](CCCCN)NC(=O)[C@@H](CC(C)C)NC(=O)[C@@H](CC(C)C)NC(=O)[C@@H](Cc1c[nH]c2ccccc12)NC(=O)[C@@H](CCC(N)=O)NC(=O)[C@@H](CC(=O)O)NC(=O)[C@H](NC(=O)[C@H](N)[C@H](C)O)[C@H](C)CC)[C@H](C)CC)C(=O)N[C@@H](C(=O)N[C@H](CO)C(=O)N[C@H](CC(=O)O)C(=O)N[C@H](Cc1ccccc1)C(=O)N[C@H](Cc1ccc(O)cc1)C(=O)N[C@H](Cc1ccccc1)C(=O)N[C@H](CC(N)=O)C(=O)N[C@H](C)C(=O)N[C@@H](C(=O)N[C@H](CC(N)=O)C(=O)N[C@H](CCCCN)C(=O)N[C@H](C)C(=O)N[C@H](CCCCN)C(=O)N[C@@H](C(=O)N[C@@H](C(=O)N[C@H](CCC(=O)O)C(=O)N[C@H](CCC(=O)O)C(=O)N[C@@H](C(=O)N[C@H](CC(N)=O)C(=O)N[C@H](C)C(=O)N[C@H](CC(C)C)C(=O)N[C@H](CCCCN)C(=O)N[C@H](CC(N)=O)C(=O)N[C@H](CCC(=O)O)C(=O)N[C@@H](C(=O)N[C@H](CC(C)C)C(=O)N[C@H](CCCCN)C(=O)N[C@H](C)C(=O)N[C@H](Cc1c[nH]cn1)C(=O)N[C@H](C)C(=O)O)[C@H](C)CC)C(C)C)C(C)C)[C@H](C)O)[C@H](C)CC)[C@H](C)O [GA domain wt, tidqwllknakedaiaelkkaGitsdfyfnainkaktveevnalkneilkaha, reference compound] |  |  | No |
